“And” between values parts separate entries of the source, which are not always exact repeats. Equal values may be shown once. Read-outs that look alike come from different tables or passages of the source.
Key:
[1] = molecular target: T1, human TREM1 (SPR of the humanised grafts, construct not stated) (human, UniProt Q9NP99 21-205, limits assumed); test: SPR, human TREM1, IgG4P
human TREM1 on cells [2] = molecular target: T2, human TREM1 on cells (human, UniProt Q9NP99 21-234); test: LigandTracer, AF647-labelled antibody on HEK293 cells expressing human TREM1, 25 C, 1:1 model, N = 3
T2 construct: also called cell surface human TREM1; hTREM1 (HEK293, THP1 TREM1/DAP12 reporter cells, hTREM1/hDAP-12 Flp-In 293 cells, primary monocytes, PBMCs)

Chains of the proteins cited; added tags and fusions are not shown. Chains listed by the source or under a name are the forms on record and can include a tag or linker. Residues count along the entry.
UniProt Q9NP99, 21-205 limits assumed: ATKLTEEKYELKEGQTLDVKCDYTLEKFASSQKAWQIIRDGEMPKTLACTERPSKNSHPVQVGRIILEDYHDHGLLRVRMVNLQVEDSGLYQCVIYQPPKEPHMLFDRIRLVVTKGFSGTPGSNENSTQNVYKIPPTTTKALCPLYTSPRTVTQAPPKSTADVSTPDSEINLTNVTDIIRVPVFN
UniProt Q9NP99, 21-234: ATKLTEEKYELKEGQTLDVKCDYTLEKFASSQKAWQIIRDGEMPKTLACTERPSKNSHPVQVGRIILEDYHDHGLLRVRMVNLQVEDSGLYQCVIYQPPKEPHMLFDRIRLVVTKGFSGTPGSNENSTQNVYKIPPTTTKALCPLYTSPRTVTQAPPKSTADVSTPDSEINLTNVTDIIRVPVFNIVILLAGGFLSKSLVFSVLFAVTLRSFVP
Human TREM1 extracellular domain CID101904 (hTREM1_1-200-Avi-Tev-HKH), one chain, as listed by the source: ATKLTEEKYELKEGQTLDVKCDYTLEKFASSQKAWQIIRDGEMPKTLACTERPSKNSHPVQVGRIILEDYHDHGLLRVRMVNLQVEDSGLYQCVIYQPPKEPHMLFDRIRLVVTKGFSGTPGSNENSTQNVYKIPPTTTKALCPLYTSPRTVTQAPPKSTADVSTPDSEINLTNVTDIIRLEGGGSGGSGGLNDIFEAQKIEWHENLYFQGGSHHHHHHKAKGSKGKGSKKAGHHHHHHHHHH

human TREM1 on cells [3] = molecular target: T2, human TREM1 on cells; test: cell-based or functional assay
[4] = molecular target: T1, human TREM1 (SPR of the humanised …); test: SPR, human TREM1, humanised IgG4P graft
human TREM1 on cells [5] = molecular target: T2, human TREM1 on cells; test: LigandTracer, AF647-labelled antibody on HEK293 cells expressing human TREM1, 25 C, 1:1 model, N = 5
human TREM1 on cells [6] = molecular target: T2, human TREM1 on cells; test: cell-based or functional assay; remark: listed apart in the source
[7] = molecular target: T3, Human TREM1 extracellular domain CID101904 (hTREM1_1-200-Avi-Tev-HKH) (human); test: SPR (Biacore T200), 25 C, species panel, antibody captured by anti-human Fc, 1:1 model, n=1
T3 construct: also called Human TREM1 ECD (in house, His tagged); TREM1 ECD analyte
Procedure: The species tested were human, cynomolgus, rhesus, marmoset, rat, mouse, dog and pig.
TREM1 ECD analyte (in house, His tagged) was injected at 3-fold serial dilutions in HBS-EP+ running buffer (GE Healthcare), top concentrations are shown in Table 15, and three-fold serial dilutions were performed to a bottom concentration of 2 nM. Buffer blank injections were included to subtract instrument noise and drift.

[8] = molecular target: T3, Human TREM1 extracellular domain …; test: SPR (Biacore T200 and 8k), 25 C, antibody captured by anti-human Fc, TREM1 ECD as analyte, 1:1 model, n=2
Excerpt: Buffer blank injections were included to subtract instrument noise and drift.

human TREM1 on cells [9] = molecular target: T2, human TREM1 on cells; test: cell-based or functional assay; remark: listed apart in the source
human TREM1 on cells [10] = molecular target: T2, human TREM1 on cells; test: LigandTracer, AF647-labelled antibody on HEK293 cells expressing human TREM1, 25 C, 1:1 model, N = 2
human TREM1 on cells [11] = molecular target: T2, human TREM1 on cells; test: cell-based or functional assay; remark: listed apart in the source
human TREM1 on cells [12] = molecular target: T2, human TREM1 on cells; test: LigandTracer, AF647-labelled antibody on HEK293 cells expressing human TREM1, 25 C, 1:1 model, N = 1
human TREM1 on cells [13] = molecular target: T2, human TREM1 on cells; test: LigandTracer, HEK293 cells expressing human TREM1, 1:1 model, geometric mean of five
human TREM1 on cells [14] = molecular target: T2, human TREM1 on cells; test: cell-based or functional assay; remark: listed apart in the source
human TREM1 on cells [15] = molecular target: T2, human TREM1 on cells; test: LigandTracer, HEK293 cells expressing human TREM1, 1:1 model, average of five
human TREM1 on cells [16] = molecular target: T2, human TREM1 on cells; test: LigandTracer, AF647-labelled antibody on HEK293 cells expressing human TREM1, 25 C, 1:1 model, N = 4
[17] = molecular target: T1, human TREM1 (SPR of the humanised …); test: SPR, human TREM1, IgG4P charge mutant
[18] = molecular target: T1, human TREM1 (SPR of the humanised …); test: SPR, human TREM1
[19] = molecular target: T1, human TREM1 (SPR of the humanised …); test: SPR, human TREM1; remark: listed apart in the source

B1: 12172 gL2gH11 hIgG4P (antibody)
heavy: not shown
light: DIQLTQSPSFLSASVGDRVTITCQASQNIGSDLAWYQQKPGKAPKLLIYKAATLASGVPSRFSGSGSGTEFTLTISSLQPEDFATYYCQQYYYGSAGADTDTFGGGTKVEIKRTVAAPSVFIFPPSDEQLKSGTASVVCLLNNFYPREAKVQWKVDNALQSGNSQESVTEQDSKDSTYSLSSTLTLSKADYEKHKVYACEVTHQGLSSPVTKSFNRGEC
notes: Humanised IgG4P, human kappa; also called 12172gL2gH11 IgG4P
Kd [1]: 0.445 nM
Kd (human TREM1 on cells [2]): 0.0152 nM
koff (human TREM1 on cells [2]): 3.71e-06 s⁻¹
kon (human TREM1 on cells [2]): 244000 M⁻¹ s⁻¹
Geo IC50, IL-1β release from PGN-BS/PGLYRP1-activated primary human monocytes (n = 2) (human TREM1 on cells [3]): 0.005 nM
Geo IC50, IL-6 release from PGN-BS/PGLYRP1-activated primary human monocytes (n = 4) (human TREM1 on cells [3]): 0.027 nM
Geo IC50, TNF-α release from PGN-BS/PGLYRP1-activated primary human monocytes (n = 4) (human TREM1 on cells [3]): 0.015 nM
Kd [4]: 0.453 nM
Kd (human TREM1 on cells [5]): 0.0133 nM
koff (human TREM1 on cells [5]): 5.88e-06 s⁻¹
kon (human TREM1 on cells [5]): 443000 M⁻¹ s⁻¹
percentage inhibition of CCL-3 release, activated primary human monocytes, antibody 1 nM (human TREM1 on cells [6]): 57%
percentage inhibition of CCL-20 release, activated primary human monocytes, antibody 1 nM (human TREM1 on cells [6]): 69%
percentage inhibition of CXCL-9 release, activated primary human monocytes, antibody 1 nM (human TREM1 on cells [6]): 77%
percentage inhibition of G-CSF release, activated primary human monocytes, antibody 1 nM (human TREM1 on cells [6]): 92%
percentage inhibition of GM-CSF release, activated primary human monocytes, antibody 1 nM (human TREM1 on cells [6]): 91%
percentage inhibition of IFN-γ release, activated primary human monocytes, antibody 1 nM (human TREM1 on cells [6]): 59%
percentage inhibition of IL-1α release, activated primary human monocytes, antibody 1 nM (human TREM1 on cells [6]): 110%
percentage inhibition of IL-1β release, activated primary human monocytes, antibody 1 nM (human TREM1 on cells [6]): 98%
percentage inhibition of IL-6 release, activated primary human monocytes, antibody 1 nM (human TREM1 on cells [6]): 64%
percentage inhibition of IL-10 release, activated primary human monocytes, antibody 1 nM (human TREM1 on cells [6]): 86%
percentage inhibition of IL-12p40 release, activated primary human monocytes, antibody 1 nM (human TREM1 on cells [6]): 96%
percentage inhibition of IL-15 release, activated primary human monocytes, antibody 1 nM (human TREM1 on cells [6]): 78%
percentage inhibition of IL-18 release, activated primary human monocytes, antibody 1 nM (human TREM1 on cells [6]): 87%
percentage inhibition of IL-27 release, activated primary human monocytes, antibody 1 nM (human TREM1 on cells [6]): 81%
percentage inhibition of TNF-α release, activated primary human monocytes, antibody 1 nM (human TREM1 on cells [6]): 94%
percentage inhibition of TNF-β release, activated primary human monocytes, antibody 1 nM (human TREM1 on cells [6]): 65%
Kd [7]: 0.54 nM
koff [7]: 9.1e-05 s⁻¹
kon [7]: 170000 M⁻¹ s⁻¹
Kd [8]: 0.52 nM
koff [8]: 9.2e-05 s⁻¹
kon [8]: 180000 M⁻¹ s⁻¹
Geomean IC50, inhibition of PGLYRP1/PGN-induced NF-κB luciferase in THP1 TREM1/DAP12 reporter cells (human TREM1 on cells [9]): 0.064 nM
Kd (human TREM1 on cells [10]): 0.025 nM
koff (human TREM1 on cells [10]): 8.89e-06 s⁻¹
kon (human TREM1 on cells [10]): 356000 M⁻¹ s⁻¹
Geomean IC50, inhibition of PGLYRP1/PGN-induced NF-κB luciferase in THP1 TREM1/DAP12 reporter cells (human TREM1 on cells [11]): 0.064 nM
Kd (human TREM1 on cells [12]): 0.0194 nM
koff (human TREM1 on cells [12]): 6.8e-06 s⁻¹
kon (human TREM1 on cells [12]): 350000 M⁻¹ s⁻¹
Kd (human TREM1 on cells [13]): 0.0165 nM
koff (human TREM1 on cells [13]): 5.23e-06 s⁻¹
kon (human TREM1 on cells [13]): 317000 M⁻¹ s⁻¹
pSYK inhibition Emax, hTREM1/hDAP-12 Flp-In 293 cells stimulated with PGN-EC/PGLYRP1 (human TREM1 on cells [14]): 63%
pSYK inhibition IC50, hTREM1/hDAP-12 Flp-In 293 cells stimulated with PGN-EC/PGLYRP1 (human TREM1 on cells [14]): 1020 pM
Kd (human TREM1 on cells [15]): 0.0171 nM
koff (human TREM1 on cells [15]): 5.65e-06 s⁻¹
kon (human TREM1 on cells [15]): 326000 M⁻¹ s⁻¹
Kd (human TREM1 on cells [16]): 0.0125 nM
koff (human TREM1 on cells [16]): 2.97e-06 s⁻¹
kon (human TREM1 on cells [16]): 238000 M⁻¹ s⁻¹

B2: 12172gL11gH11 (antibody, human IgG4 S228P, kappa, V domains shown)
VH: EVQLVESGGGLVQPGGSLRLSCAASGFSLSSYAMTWVRQAPGKGLEWIGIIYAGGSPSYASWAKGRFTISKDNSKNTLYLQMNSLRAEDTAVYYCARGTGDTVYTYFNIWGQGTLVTVSS
VL: DIQLTQSPSFLSASVGDRVTITCQASQNIGSDLAWYQQKPGKAPKLLIYSAATLASGVPSRFSGSGSGTEFTLTISSLQPEDFATYYCQQYYYGSAGADTDTFGGGTKVEIKR
Kd [17]: 0.55 nM

B3: Rabbit Ab 12172 (antibody, V domains shown)
VH: QSLEESGGRLVTPGTPLTLTCTASGFSLSSYAMTWVRQAPGKGLEWIGIIYAGGSPSYASWAKGRFTISKTSTTVDLKMTSPTTEDTATYFCARGTGDTVYTYFNIWGPGTLVTVSS
VL: AVVLTQTASPVSAPVGGTVTIKCQASQNIGSDLAWYQQEPGQPPKLLIYKAATLASGVPSRFKGSGSGTEFTLTISGVQCEDGATYYCQQYYYGSAGADTDTFGGGTEVVVK
Geomean IC50, inhibition of PGLYRP1/PGN-induced NF-κB luciferase in THP1 TREM1/DAP12 reporter cells (human TREM1 on cells [11]): 0.084 nM
Kd [18]: 0.519 nM and 0.461 nM
Kd [19]: 0.57 nM

Reference: patent publication US20240254224A1 (UCB, published 2024)
